Test results taken from US4544740A, “Process for the preparation of 5-(2-bromovinyl)-uridine” (priority 1981, dated 1985).

What was measured:
mice = conditions: mouse, in vivo
[1] = test system: type 1 Herpes simplex virus; test: Inhibitory effect of nucleoside analogues on multiplication of type 1 Herpes simplex in HeLa cell culture (virus titer, TCID50); assay type: cell-based, Herpes simplex virus type 1; conditions: HeLa cell cultures, Herpes simplex type 1 virus, compared to controls exerting 50 percent inhibition
From the text: A method was developed for the testing of the antiviral activity of various drugs in solution which is suitable for the exact, sensitive and objective in vitro assay of drug activity exerted on the cells and tissues of both warm-blooded animals and men [Toxicology 16, 59 (1980)]. The method is also suitable for calculating from the test data the highest concentration of the test drug in the tissue culture medium which is not impairing the tissue yet (CTo).
The difference in the logarithm of virus titers may be considered the objective indicator of the rate of inhibition of virus multiplication.

Structure (SMILES): O=c1[nH]c(=O)n([C@@H]2O[C@H](CO)[C@@H](O)[C@H]2O)cc1/C=C/Br [A, (E)-5-(2-Bromovinyl)-uridine]
- tissue toxicity, toxicity trial on mice, in words (mice): favourable tissue toxicity
- therapeutic index [1]: 63
